Results: patent publication US20250110116A1, “COMPOSITIONS AND METHODS FOR PRODUCING HAIR FOLLICLE STEM CELLS” (The Rockefeller University, priority 2023, published 2025)

Tested on: cultured HFSCs
Experiment: Directed differentiation of cultured HFSCs to HS and IRS lineages (Cux1 reporters, GATA3, HOXC13)
Assay type: cell-based, mouse

B1: BMP2: bone morphogenetic protein (protein, UniProt P12643 283-396, looked up)
Bone morphogenetic protein 2: QAKHKQRKRLKSSCKRHPLYVDFSDVGWNDWIVAPPGYHAFYCHGECPFPLADHLNSTNHAIVQTLVNSVNSKIPKACCVPTELSAISMLYLDENEKVVLKNYQDMVVEGCGCR
lineages formed (R-spondins, BMP2 and BMP4 together): directed HFSCs to form the hair shaft and inner root sheath lineages | Cux1 (IRS) and Cux1 (HS) reporter activity (alongside Rspo): most effective in upregulating reporter activity
